One may read the efflux ratio as the permeability from basolateral to apical divided by that in the opposite direction, in the common usage.

Amino acid sequences for entries named in this document (tags omitted).
UniProt P08183, whole entry: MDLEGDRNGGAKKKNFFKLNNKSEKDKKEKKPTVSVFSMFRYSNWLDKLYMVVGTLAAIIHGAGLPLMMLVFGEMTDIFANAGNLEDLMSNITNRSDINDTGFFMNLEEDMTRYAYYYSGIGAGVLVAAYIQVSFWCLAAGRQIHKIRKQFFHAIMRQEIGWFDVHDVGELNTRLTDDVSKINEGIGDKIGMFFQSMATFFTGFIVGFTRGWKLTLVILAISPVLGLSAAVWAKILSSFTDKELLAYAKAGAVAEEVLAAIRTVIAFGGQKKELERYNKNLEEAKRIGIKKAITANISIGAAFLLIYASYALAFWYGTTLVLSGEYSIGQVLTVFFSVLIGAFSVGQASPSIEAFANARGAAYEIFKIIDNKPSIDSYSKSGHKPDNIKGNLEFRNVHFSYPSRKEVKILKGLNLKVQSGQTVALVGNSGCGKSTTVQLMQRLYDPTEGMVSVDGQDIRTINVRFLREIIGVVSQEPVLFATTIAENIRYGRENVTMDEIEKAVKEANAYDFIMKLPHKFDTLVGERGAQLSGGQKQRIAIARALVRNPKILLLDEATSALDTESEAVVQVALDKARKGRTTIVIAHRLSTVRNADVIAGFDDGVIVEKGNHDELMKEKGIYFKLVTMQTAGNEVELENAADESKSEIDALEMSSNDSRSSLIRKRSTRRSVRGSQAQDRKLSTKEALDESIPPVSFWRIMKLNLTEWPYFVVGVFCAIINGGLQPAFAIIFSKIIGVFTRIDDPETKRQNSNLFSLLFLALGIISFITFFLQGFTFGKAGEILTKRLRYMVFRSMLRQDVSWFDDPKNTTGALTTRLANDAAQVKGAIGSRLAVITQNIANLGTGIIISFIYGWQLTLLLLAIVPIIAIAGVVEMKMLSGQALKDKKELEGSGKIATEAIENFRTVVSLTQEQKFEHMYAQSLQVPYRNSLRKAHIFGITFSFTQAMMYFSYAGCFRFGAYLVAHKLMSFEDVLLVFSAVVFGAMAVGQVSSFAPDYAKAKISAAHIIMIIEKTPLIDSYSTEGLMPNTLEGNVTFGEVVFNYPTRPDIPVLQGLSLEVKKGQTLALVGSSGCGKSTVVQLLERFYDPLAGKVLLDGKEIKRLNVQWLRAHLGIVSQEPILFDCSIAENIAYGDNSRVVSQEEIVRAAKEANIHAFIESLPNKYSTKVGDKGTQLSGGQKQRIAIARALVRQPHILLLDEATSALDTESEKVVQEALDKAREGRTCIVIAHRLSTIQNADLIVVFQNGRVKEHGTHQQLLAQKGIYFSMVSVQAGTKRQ

The target of data set [1] is T1, P-gp (Homo sapiens, UniProt P08183). Nature of the data set: in vitro. The settings on record: Caco-2.
Data set [2] has as its target T1, P-gp. The settings on record: 1 µM.

Turning to `C[C@H]1O[C@@H](O[C@H]2[C@@H](O)C[C@H](O[C@H]3[C@@H](O)C[C@H](O[C@H]4CC[C@@]5(C)[C@H](CC[C@@H]6[C@@H]5C[C@@H](O)[C@]5(C)[C@@H](C7=CC(=O)OC7)CC[C@]65O)C4)O[C@@H]3C)O[C@@H]2C)C[C@H](O)[C@@H]1O` [Digoxin, reference compound], in data set [1], the efflux ratio at 60 min, 5 µM turned out to be 48.7.
As for LY335979, the “Percentage of inhibition (P-gp)” value in data set [2] came to 94.8%.

The values are drawn from publication PMC11211886 (Frontiers in Pharmacology, 2024).
